# Experimental data from PubChem BioAssay AID504558 (Broad Institute, 2011).
# The entries are a selection whose mix differs from that of the whole data set. Activity calls are given as the source filed them. Rule as the data show it: active = inhibition above about 41%; inconclusive = no clear call, values can overlap the other calls; inactive = below that.
# Assay: EBV LMP1-driven NF-kappaB luciferase reporter inhibitors, primary screen, cell-based, luminescence, single point (AID 504558);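 also: 0% = neutral control wells and 100% = reference inhibitor control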
# Conditions: LMP1-induced NF-kappaB luciferase reporter cells, at 12.5 µM, active compounds read high
row,Compound,inhibition
1,CC(C)C(=O)NC(Sc1ccccc1)C(Cl)(Cl)Cl (stereo not given),inactive: -0.294%
2,O=P(Nc1nccs1)(c1ccccc1)c1ccccc1,inactive: 2.69%
3,c1nnnn1CCn1cnnn1,inactive: -17.2%
4,O=P(Nc1ccccn1)(c1ccc(Br)cc1)c1ccc(Br)cc1,inactive: 1.09%
5,CN(C)C1(CNC(=O)c2ccc(Cl)c(S(N)(=O)=O)c2)CCCCC1,inactive: -2.12%
6,COc1ccc(N)c([N+](=O)[O-])c1[N+](=O)[O-],inactive: -7.48%
7,O=P(Nc1nc2ccccc2s1)(c1ccccc1)c1ccccc1,inactive: -7.34%
8,C[C@H]1OP(=O)(Oc2ccccc2)[C@H](O)[C@H](O)[C@H]1N=[N+]=[N-] (stereo not given in full),inactive: 12.5%
9,O=[As](O)(c1ccccc1)c1ccc(O)cc1,inactive: -0.347%
10,O=[N+]([O-])c1ccc(O)c(/C=N/Nc2ccc([N+](=O)[O-])cc2[N+](=O)[O-])c1,inactive: 13%
11,CC(=O)NC(SC(=S)N(C)C)C(Cl)(Cl)Cl (stereo not given),inactive: -1.47%
12,O=[N+]([O-])c1ncn(CCn2cnc([N+](=O)[O-])n2)n1,inactive: 3%
13,O=C(OC1CN2CCC1CC2)c1cccc(Cl)c1 (stereo not given),inactive: -3.36%
14,Nc1ccc([As](=O)(O)c2ccc([N+](=O)[O-])cc2)cc1,inactive: -7.79%
15,C(Cc1nn[nH]n1)Cc1nn[nH]n1,inactive: 6.15%
16,c1ccc(-c2nn[nH]n2)c(-c2nn[nH]n2)c1,inactive: -12.5%
17,Cc1ccc(NP(=O)(Oc2cccc(C)c2)Oc2cccc(C)c2)nc1,inactive: -4.86%
18,CCNC(=S)/N=C(\N)N[N+](=O)[O-],inactive: -18.2%
19,O=C(NC1CCS(=O)(=O)C1)NP(=S)(Oc1ccccc1)Oc1ccccc1 (stereo not given),inactive: -0.205%
20,O=P1(N(CCCl)CCCl)OCCC2CCCCN21 (stereo not given),inactive: 5.9%
21,O=C(OC1CN2CCC1CC2)c1ccccc1 (stereo not given),inactive: 1.2%
22,CCC(=O)N1C2C3N(C(=O)CC)C1C1N(C(=O)CC)C(C(N1C(=O)CC)N3C(=O)CC)N2C(=O)CC,inactive: 1.31%

row,Compound,inhibition
1,COC(=O)c1cc2c(s1)N=C(c1ccccc1)N(C)P2(=O)N1CCOCC1 (stereo not given),inactive: 11.5%
2,CC(=O)NC(SC(=S)N(CC(C)C)CC(C)C)C(Cl)(Cl)Cl (stereo not given),inactive: 3.15%
3,Cc1ccc(OP(=O)(Nc2ccccn2)Oc2ccc(C)cc2)cc1,inactive: 1.2%
4,Cc1ccccc1OP(=O)(Nc1ccccn1)Oc1ccccc1C,inactive: 3.1%
5,CC(NC(=O)COC(=O)C(O)(c1ccccc1)c1ccccc1)c1ccccc1 (stereo not given),inactive: -1.77%
6,CN(C)C(=O)Oc1noc2ccccc12,inactive: 3.45%
7,O=c1c2cc([N+](=O)[O-])ccc2[nH]c2c([N+](=O)[O-])cc([N+](=O)[O-])cc12,inactive: 7.51%
8,O=P1(Nc2nc3ccc(Cl)cc3s2)COc2ccccc2O1 (stereo not given),inactive: -9.95%
9,CCOc1ccc(C2=NCC(CBr)S2)cc1 (stereo not given),inactive: -0.882%
10,CC(C)(C)C(=O)NC(Sc1ccccc1)C(Cl)(Cl)Cl (stereo not given),inactive: 6.6%
11,CCc1cc(O)c([N+](=O)[O-])c(C)c1[N+](=O)[O-],inactive: 2.36%
12,Cc1ccccc1CN(C)C(=O)COC(=O)C(O)(c1ccccc1)c1ccccc1,inactive: -4.81%
13,C[C@@H]1C=CCP(=O)(Oc2ccccc2)O1 (stereo not given in full),inactive: 4.98%
14,C[C@H]1OP(=O)(Oc2ccccc2)C[C@@H]2O[C@@H]21 (stereo not given in full),inactive: -2.41%
15,N#C/C(=C\c1ccc(N(CCBr)CCBr)cc1)C(N)=O,active: 51.3%
16,CC(=O)c1ccc(N2CC2c2ccncc2)cc1 (stereo not given),inactive: -3.54%
17,COC(=O)C1(C)COP(=O)(NCc2ccccc2)OC1 (stereo not given),inactive: 4.59%
18,CC(=O)Nc1ccc([As](=O)(O)O)c(O)c1,inactive: -10.4%
19,CC(=O)Nc1ccc(Oc2c([N+](=O)[O-])cc([N+](=O)[O-])cc2[N+](=O)[O-])cc1,inactive: -4.08%
20,CN(C(=O)Cc1ccc(Cl)c(Cl)c1)[C@H]1CCCC[C@H]1N1CCCC1,inactive: 1.69%
21,Cc1ccc(N/C(=N/P(=O)(N2CCOCC2)N2CCOCC2)N2CCOCC2)cc1,inactive: -1.77%
22,NC(=O)c1cc([N+](=O)[O-])cc([N+](=O)[O-])c1N,inactive: 6.2%

row,Compound,inhibition
1,Clc1ccc(Cl)c(NC2=NCC(CBr)S2)c1 (stereo not given),inactive: -4.29%
2,CN1CCCC(OC(=O)C(c2ccccc2)c2ccccc2)C1 (stereo not given),inactive: -9.82%
3,COc1ccccc1OP(=O)(Nc1ccc(C)cn1)Oc1ccccc1OC,inactive: -3.44%
4,Oc1ccccc1CNc1ccccn1,inactive: -0.0275%
5,O=C(NC(Sc1ccncn1)C(Cl)(Cl)Cl)c1ccccc1 (stereo not given),inactive: -0.938%
6,CC(C)CC(=O)NC(Sc1ccc(Cl)cc1)C(Cl)(Cl)Cl (stereo not given),inactive: -11.5%
7,Nc1cc(N)c2nonc2c1[N+](=O)[O-],inactive: 2.31%
8,CN(C)P(=O)(N(C)C)n1c(Nc2ccccc2)nnc1-c1ccccc1,inactive: -2.15%
9,O=P(Nc1nc2ccc(Cl)cc2s1)(c1ccccc1)c1ccccc1,inactive: -2.02%
10,O=C(O)c1ccccc1[As](=O)(O)O,inactive: -3.26%
11,CC(=O)Nc1ccc([As](=O)(O)O)cc1,inactive: 1.41%
12,CCCC1OP(N)(=O)OCC1CC (stereo not given),inactive: -6.35%
13,CCOP(=O)(Nc1ccccc1)OCC,inactive: 2.16%
14,Cc1cc(SC(NC(=O)c2ccc(F)cc2)C(Cl)(Cl)Cl)ncn1 (stereo not given),inactive: -8.64%
15,Cc1ccc(NP(=O)(Oc2ccccc2F)Oc2ccccc2F)nc1,inactive: 4.18%
16,CN(C(=O)Cc1ccc(Cl)c(Cl)c1)[C@H]1CCCC[C@@H]1N1CCCC1,active: 84%
17,Nc1cccc2ccc([As](=O)(O)O)cc12,inactive: -8.2%
18,CCN(N=Nc1nonc1N)c1nonc1N,inactive: 7.89%
19,O=P1(N(CCCl)CCCl)OCCCS1 (stereo not given),inactive: -7.04%
20,O=C(Nc1cc([As](=O)(O)O)ccc1O)c1ccccc1,inactive: -4.47%
21,O=[N+]([O-])c1ncn(CCn2ncnc2[N+](=O)[O-])n1,inactive: 5.48%
